Assay results reported in patent US20220175776A1 (Frequency Therapeutics, Inc., priority 2019, published 2022).

Tested on: Lgr5+ cochlear cells
Experiment: Lgr5+ Assay (in vitro Lgr5+ cell proliferation assay)
Format: cell-based
Settings: Table 6

CN1CCN(C(=O)CN[C@@H]2C[C@H]2c2ccc(OCc3ccccc3)cc2)CC1 (relative stereo)
Lgr5+ Assay: 41 nM
